Source: patent publication US20090105197A1, “Use of Sodium Channel Blocking Compounds and Aspirin in Manufacturing Drugs for Producing Analgesia Synergistically in Mammals” (priority 2001, published 2009)

System: acetic acid-induced writhing in mice
Format: in vivo, Kunming mice
Settings: aspirin alone, i.m., probit method
Text: Kunming mice, 18-22 grams, half male and half female, supplied by the Experimental Animal Center of Beijing University, Medical Branch. Quality Certificate No. 013056. Classification: One.
Tetrodotoxin (TTX), 95% purity, supplied by Nanning Maple Leaf Pharmaceutical Co., LTD., batch no. 0324C. Diluted with citric acid buffer solution to required concentration. Aspirin (ASP), powder, 99% purity, manufactured by Shandong Xinhua Pharmaceutical Factory, batch no. 0005564. Ground and then diluted with 0.5% sodium carboxymethyl cellulose (CMC) solution. Glacial acetic acid, analytical pure, manufactured by Beijing 52952 Chemical Factory, batch no. 991117.
Acetic acid-induced writhing test in mice (Shuyun X U, Rulian BIAN, Xiu CHEN, Methodology of Pharmacology Experiments). […] Solely TTX or ASP was given to mice intramuscularly. For combined groups, drugs were given to both sides of a mouse intramuscularly at a volume of 0.1 mL/10 g, respectively. After 40 minutes, 0.6% glacial acetic acid solution was given intraperitoneally to induce pain. In the following 15 minutes, writhing movements were observed and recorded. […] The writhing inhibition rate was calculated according to the following formula: […]
The half inhibition rate (IDso) was determined by the probit method. […]

For `CC(=O)Oc1ccccc1C(=O)O` [ASP, Aspirin], the “ID50 (half inhibition dose) of aspirin” value was 44.1 mg/kg and the “ID50 (half inhibition dose) of aspirin” value (listed as aspirin) was 44.1 mg/kg and 44.11 mg/kg.

“And” between values parts separate entries of the source, which are not always exact repeats. Identical values can stand only once. Like-named read-outs stand apart in the source and are kept apart here.
